From patent US7585941B2 (priority 2004, dated 2009)

System: human MOR-1 variants
Details: all human variants

**Q.** CN(C(=O)Cc1ccc(Cl)c(Cl)c1)[C@@H]1CCCC[C@H]1N1CCCC1 was tested. Which “competition of [3H]DAMGO binding (in words)” value did it give?
**A.** inactive
